# Experimental data from BindingDB's records for patent US9453017 (Vanderbilt University, 2016).
# Amino acid sequences for entries named in this document (tags omitted). A change or cut given only in a name is not applied to a line headed by its entry.
# UniProt O14939: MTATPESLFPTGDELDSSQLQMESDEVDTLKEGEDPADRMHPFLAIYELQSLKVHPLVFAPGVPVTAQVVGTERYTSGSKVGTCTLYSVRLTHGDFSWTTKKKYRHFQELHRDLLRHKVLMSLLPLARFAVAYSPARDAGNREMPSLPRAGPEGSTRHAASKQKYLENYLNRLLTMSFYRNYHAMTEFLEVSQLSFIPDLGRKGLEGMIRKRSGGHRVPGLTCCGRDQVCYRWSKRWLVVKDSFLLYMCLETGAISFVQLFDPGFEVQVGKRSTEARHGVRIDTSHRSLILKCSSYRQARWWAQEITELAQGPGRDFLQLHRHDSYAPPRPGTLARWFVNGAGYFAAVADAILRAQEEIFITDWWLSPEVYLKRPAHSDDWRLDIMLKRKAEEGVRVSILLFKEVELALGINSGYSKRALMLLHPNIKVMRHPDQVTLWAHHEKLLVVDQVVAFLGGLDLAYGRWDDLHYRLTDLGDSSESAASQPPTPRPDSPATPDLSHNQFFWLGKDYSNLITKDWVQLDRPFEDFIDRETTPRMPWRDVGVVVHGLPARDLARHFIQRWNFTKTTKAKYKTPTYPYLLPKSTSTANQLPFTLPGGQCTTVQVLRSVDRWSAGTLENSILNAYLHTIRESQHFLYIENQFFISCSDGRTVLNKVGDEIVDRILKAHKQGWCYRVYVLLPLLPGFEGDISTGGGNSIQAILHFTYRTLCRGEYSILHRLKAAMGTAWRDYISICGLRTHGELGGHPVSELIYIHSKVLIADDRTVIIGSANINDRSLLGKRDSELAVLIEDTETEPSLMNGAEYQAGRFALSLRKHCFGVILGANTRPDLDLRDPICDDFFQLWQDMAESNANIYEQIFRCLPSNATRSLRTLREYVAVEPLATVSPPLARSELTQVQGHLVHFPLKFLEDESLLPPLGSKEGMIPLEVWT
# Target: Phospholipase D2 (Homo sapiens, UniProt O14939)
compound,measurement,value
"O=C(NCCN1CCC2(CC1)CNC(=O)N2c1cccc(F)c1)c1ccc2ccccc2c1 [US9453017, 1]",pIC50,7.00

# pIC50: −log10 of the molar value.
